Values quoted from earlier work in paper PMC8302504, “Efficacy of Fenfluramine and Norfenfluramine Enantiomers and Various Antiepileptic Drugs in a Zebrafish Model of Dravet Syndrome” (Neurochemical Research, 2021).

Key:
[1] = system: 5-HT transporter proteins; set-up: method as in earlier work; settings: 34 (Rothman et al.); read-out: EC50 values for release, 5-HT; cited from earlier work
serotonin uptake = biological target: serotonin uptake; set-up: method as in earlier work; settings: 34 (Rothman et al.); read-out: Ki values for uptake inhibition, 5-HT; cited from earlier work

| Compound | EC50 [1] [nM] | Ki (serotonin uptake) [nM] |
| --- | --- | --- |
| CCN[C@@H](C)Cc1cccc(C(F)(F)F)c1 [(+)-FFA] | 51.7 ± 6.1 | 150 ± 5 |
| CCN[C@H](C)Cc1cccc(C(F)(F)F)c1 [(−)-FFA] | 147 ± 19 | 714 ± 31 |
